The conditions of the series: 5 μmol dm^−3 prodrug, NADPH, pH 7.4, 37° C.

Take “9-[(4,6-O-Ethylidene-β-D-glucopyranosyl)oxy]-5,8,8a,9-tetrahydro-5-(4-(1-(5-nitrothien-2-yl)ethoxy)-3,5-dimethoxyphenyl)furo[3′,4′:6,7]naphtha[2,3-d]-1,3-dioxol-6(5aH)-one [Example 1]”: the “Rate of drug release (pmol/min/mg protein) Anoxic” value (Anoxic (nitrogen)) is 95 pmol/min/mg protein. The “Rate of drug release (pmol/min/mg protein) Oxic” value (Oxic (air)) worked out at 0 pmol/min/mg protein.

The values are drawn from patent US20090202571A1, “Bioreductively-activated prodrugs” (HOPNIC LABORATORY CO., LTD., priority 2004, published 2009).
